# AlphaSeq binding of Ab-14 heavy chain variants to a spike HR2 peptide

Antigen: PDVDLGDISGINAS, a 14-residue peptide of the SARS-CoV-2 spike HR2 region.

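Phage display of a naive human antibody library on the peptide gave the parent. The library (AAYL49) carries one to three amino acid substitutions per variant, with no insertions or deletions. The scFvs were displayed on barcoded MATa yeast, the peptide on MATalpha yeast. After mating in shaken culture at 30 °C for 16 h, diploids were selected and their barcode pairs sequenced. A regression on co-assayed BCL2-family reference pairs converts the normalised counts of each replicate to an apparent Kd. The assay was run in three technical replicates.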

The variants keep the light chain, the linker and the frameworks of Ab-14 (scFv order VH, a 15-residue (Gly4Ser)3 linker, VL).
VH: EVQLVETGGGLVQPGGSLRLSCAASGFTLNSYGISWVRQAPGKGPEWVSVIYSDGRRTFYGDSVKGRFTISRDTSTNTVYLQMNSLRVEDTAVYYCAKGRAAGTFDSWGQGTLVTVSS
VL: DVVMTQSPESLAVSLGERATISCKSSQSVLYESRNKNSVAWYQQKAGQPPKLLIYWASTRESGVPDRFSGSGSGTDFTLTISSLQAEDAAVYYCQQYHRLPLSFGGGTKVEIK

Positions count from residue 1 of the parent VH; S35D puts D in place of S.
Each Kd is an estimate from the mating assay, the geometric mean of the replicates in which the pair was seen; lower is stronger.
"nd" marks a missing value. The strain was present, yet no cells mated with the target were sequenced in any replicate, which points to weak or no binding.

For S35D/I51C/K65L, the assay gave 180 µM (3 of 3 replicates; controls 5 of 9).
For T28M/T58L/Y60E, the assay gave nd (0 of 3 replicates; controls 0 of 9).
For G33Q/A101F/F105I, the assay gave 110 µM (2 of 3 replicates; controls 1 of 9).
For D54R/A101W, the assay gave 19 µM (2 of 3 replicates; controls 5 of 9).
For G26S/N30A/R100Y, the assay gave 1.0 µM (3 of 3 replicates; controls 1 of 9).
For N30E/D62V, the assay gave 1.4 µM (3 of 3 replicates; controls 1 of 9).
For R100M/T104S/D106G, the assay gave 75 µM (3 of 3 replicates; controls 1 of 9).
For V64L/G99P, the assay gave nd (0 of 3 replicates; controls 0 of 9).
For K65P/T104P, the assay gave 830 nM (1 of 3 replicates; controls 0 of 9).
For G26V/S31L/D54T, the assay gave nd (0 of 3 replicates; controls 2 of 9).
For G26E/G55E, the assay gave 4.8 µM (1 of 3 replicates; controls 5 of 9).
For G33P/R57T/V64L, the assay gave nd (0 of 3 replicates; controls 0 of 9).
For G26H/N30S/Y52W, the assay gave 8.4 µM (2 of 3 replicates; controls 2 of 9).
For N30H/K65Q/A102E, the assay gave nd (0 of 3 replicates; controls 0 of 9).
For S31A/S35R/F105T, the assay gave nd (0 of 3 replicates; controls 0 of 9).
For K65C/G103H/T104A, the assay gave 28 µM (1 of 3 replicates; controls 2 of 9).
For G26R/Y32N/S35L, the assay gave 41 nM (3 of 3 replicates; controls 2 of 9).
For G33V/I51S/S63C, the assay gave nd (0 of 3 replicates; controls 0 of 9).
For Y60A/G99S/A102T, the assay gave nd (0 of 3 replicates; controls 0 of 9).
For N30E/R57A/D62S, the assay gave 12 µM (2 of 3 replicates; controls 0 of 9).
For Y60W/T104C/D106V, the assay gave nd (0 of 3 replicates; controls 0 of 9).
For G33T/Y52L/D106R, the assay gave 57 µM (2 of 3 replicates; controls 2 of 9).
For S35H/D54F/D106A, the assay gave nd (0 of 3 replicates; controls 0 of 9).
For G55L/R56S/R100S, the assay gave 88 µM (1 of 3 replicates; controls 2 of 9).
For T28H/L29Y/Y32K, the assay gave nd (0 of 3 replicates; controls 1 of 9).
For F27K/S35M, the assay gave 6.6 µM (3 of 3 replicates; controls 2 of 9).

Continued, with the values leading:

nd (0 of 3 replicates; controls 0 of 9): L29R/G33P/A101N.
nd (0 of 3 replicates; controls 1 of 9): S31D/V64F/A102L.
4.2 µM (1 of 3 replicates; controls 0 of 9): S31T/Y32N/A101W.
2.6 µM (2 of 3 replicates; controls 1 of 9): R57I/F59G/G61D.
nd (0 of 3 replicates; controls 1 of 9): I51R/Y52S/D62T.
nd (0 of 3 replicates; controls 2 of 9): F59W/D62C/K65C.
nd (0 of 3 replicates; controls 0 of 9): L29F/F59H/G99T.
330 nM (3 of 3 replicates; controls 4 of 9): Y32Q/K65E.
380 µM (1 of 3 replicates; controls 3 of 9): G33M/V64D.
nd (0 of 3 replicates; controls 1 of 9): I34C/R56Y/D106C.
nd (0 of 3 replicates; controls 0 of 9): I34K/R56E/R57M.
nd (0 of 3 replicates; controls 0 of 9): G26T/S35M/S63L.
4.9 µM (1 of 3 replicates; controls 1 of 9): S63Q/A101Q/G103H.
nd (0 of 3 replicates; controls 2 of 9): S35A/Y60V/D106P.
nd (0 of 3 replicates; controls 2 of 9): Y52I/T58S/K65F.
nd (0 of 3 replicates; controls 1 of 9): L29S/D54E/R56S.
nd (0 of 3 replicates; controls 0 of 9): L29W/Y60R/S63F.
23 µM (2 of 3 replicates; controls 1 of 9): N30M/R56F.
nd (0 of 3 replicates; controls 0 of 9): V50R/T104V.
nd (0 of 3 replicates; controls 0 of 9): R56G/Y60V.
51 µM (1 of 3 replicates; controls 2 of 9): D54P/R57Y/R100G.
nd (0 of 3 replicates; controls 0 of 9): I51Y/D62E/A101H.
13 µM (2 of 3 replicates; controls 2 of 9): F27S/T28Q/T104W.
24 µM (1 of 3 replicates; controls 1 of 9): N30Q/Y52M.
230 µM (3 of 3 replicates; controls 6 of 9): Y32V/G33W/D62W.
nd (0 of 3 replicates; controls 2 of 9): F59A/A101Y.

A selection of 6 entries from above:

{"changes": "V64L/G99P", "Kd": "nd", "seen in": "0/3", "control signals": "0/9"}
{"changes": "G26S/N30A/R100Y", "Kd": "1.0 µM", "seen in": "3/3", "control signals": "1/9"}
{"changes": "K65P/T104P", "Kd": "830 nM", "seen in": "1/3", "control signals": "0/9"}
{"changes": "S35A/Y60V/D106P", "Kd": "nd", "seen in": "0/3", "control signals": "2/9"}
{"changes": "L29S/D54E/R56S", "Kd": "nd", "seen in": "0/3", "control signals": "1/9"}
{"changes": "F59A/A101Y", "Kd": "nd", "seen in": "0/3", "control signals": "2/9"}

As a blank, each scFv also met three strains without target: over library AAYL49, 15% of these pairings were detected, typically at 11 µM and seldom below 680 nM. Also given: how often the same scFv was detected with the empty control strains.

The measurements come from Engelhart et al. 2022 (doi:10.1038/s41597-022-01779-4) through the FLAb antibody collection.